Measured values published in US20110044991A1, “METHODS AND COMPOSITIONS FOR TREATING LYMPHOMA AND MYELOMA” (IRM LLC, priority 2006, published 2011).

Tested on: lymphoma cells (mixed, B-cell lymphoma, plasmacytoma, plasmoblastoma)
Assay: Cytokine stimulation of lymphoma cells off stroma, Alamar Blue assay
Type: cell-based, mouse
Conditions: 2 days after stroma removal; cytokines 0-50 ng/ml; IL-6: plasmacytomas and mixed, IL-7: B-cell and mixed lymphomas, not plasmoblastomas
Method: Luminescence was measured after 0 h, 24 h and 48 h after seeding of 2×10E4 luciferased lymphoma cells on the stroma cells; and F: RT-PCR analysis of transcripts from Hh pathway members and targets in spleen lymphocytes and different lymphoma cell lines.
Cell culture experiments: Lymphoma cells were infected with a retrovirus containing a pMSCV IRES puro-luc sequence and selected for 7 days with puromycin on puromycin-resistant Cdkn2a−/− stroma. […] Both were dissolved as x 1,000 stocks in DMSO. SCF was obtained from RDI, and all other cytokines were obtained from R&D systems. 5E1 anti-ShhN monoclonal antibody was obtained from the developmental hybridoma bank and was used at a concentration of 10 μg/ml. For cytokine stimulation and Shh inhibition in supernatant lymphoma cells were seeded into 96-well plates at a density of 20,000 cells per well and mitochondrial activity of viable cells was measured with an Alamar Blue Assay as described.

B1: IL-3: cytokine / growth factor (protein, UniProt P08700 20-152, looked up)
Interleukin-3: APMTQTTPLKTSWVNCSNMIDEIITHLKQPPLPLLDFNNLNGEDQDILMENNLRRPNLEAFNRAVKSLQNASAIESILKNLLPCLPLATAAPTRHPIHIKDGDWNEFRRKLTFYLKTLENAQAQQTTLSLAIF
  number of viable lymphoma cells / survival after cytokine stimulation: no effect on lymphocyte growth
